Experimental data reported in patent publication US12617785B2, “Pyrrolo[2,3-b]pyridine-3-carboxamide compositions and methods for ameliorating hearing loss” (priority 2020, dated 2026).

Columns and labels:
Lats1 [1] = molecular target: T1, Lats1 (Homo sapiens, UniProt O95835); experiment: In vitro kinase assay (HTRF KinEASE-STK S1) Lats1, 10 uM ATP; type: biochemical; conditions: read-out: LATS1_HTRF_10 uM ATP IC50
T1 construct: purchased Carna 01-123
T1 sequence (O95835 1-1130): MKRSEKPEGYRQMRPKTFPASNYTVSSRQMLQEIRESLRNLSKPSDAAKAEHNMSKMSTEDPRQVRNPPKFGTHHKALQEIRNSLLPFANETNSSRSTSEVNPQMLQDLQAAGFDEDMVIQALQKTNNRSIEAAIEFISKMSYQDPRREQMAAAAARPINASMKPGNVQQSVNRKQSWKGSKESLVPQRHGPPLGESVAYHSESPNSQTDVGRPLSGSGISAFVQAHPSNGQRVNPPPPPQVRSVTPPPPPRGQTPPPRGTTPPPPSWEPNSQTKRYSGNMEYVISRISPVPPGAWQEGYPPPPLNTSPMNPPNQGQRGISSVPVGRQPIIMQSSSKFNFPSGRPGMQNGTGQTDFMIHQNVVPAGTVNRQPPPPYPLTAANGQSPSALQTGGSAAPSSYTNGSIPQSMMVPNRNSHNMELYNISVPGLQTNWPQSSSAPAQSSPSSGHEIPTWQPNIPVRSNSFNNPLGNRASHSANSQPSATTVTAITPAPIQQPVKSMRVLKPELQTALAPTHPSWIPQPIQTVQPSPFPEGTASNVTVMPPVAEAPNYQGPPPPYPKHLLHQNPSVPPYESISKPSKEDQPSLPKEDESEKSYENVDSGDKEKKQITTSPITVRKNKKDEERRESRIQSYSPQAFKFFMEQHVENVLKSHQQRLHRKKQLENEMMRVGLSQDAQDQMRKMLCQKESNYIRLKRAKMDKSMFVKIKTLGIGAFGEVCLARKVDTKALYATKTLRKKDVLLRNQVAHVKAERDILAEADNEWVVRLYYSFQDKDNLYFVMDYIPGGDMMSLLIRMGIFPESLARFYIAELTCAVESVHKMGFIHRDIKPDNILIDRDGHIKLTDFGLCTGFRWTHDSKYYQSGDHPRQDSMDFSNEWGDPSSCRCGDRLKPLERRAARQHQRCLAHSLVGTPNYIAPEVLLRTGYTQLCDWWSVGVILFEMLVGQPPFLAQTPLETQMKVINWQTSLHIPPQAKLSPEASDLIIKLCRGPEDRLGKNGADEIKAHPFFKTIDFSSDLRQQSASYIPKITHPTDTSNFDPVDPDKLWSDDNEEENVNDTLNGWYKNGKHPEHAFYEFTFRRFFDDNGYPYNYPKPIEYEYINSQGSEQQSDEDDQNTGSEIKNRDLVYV
Protocol: IVKA assay at 10 uM method:
(§1) Reactions were conducted with 10 μM STK1 substrate and 10 μM ATP or 2 mM ATP as shown below. […] The enzyme, substrate, ATP, and test compound of the invention were combined in a low-volume 384-well plate and shaken for 50 min at room temperature, unless otherwise indicated. The reaction was stopped by adding the detection reagents, which were prepared at an 8:1 biotin:streptavidin ratio and shaking for 60 min at room temperature. All reactions were conducted in triplicate and a Synergy NEO (Biotek) was used to detect the signal.

Lats1 [2] = molecular target: T1, Lats1; experiment: In vitro kinase assay (HTRF KinEASE-STK S1) Lats1, 2 mM ATP; type: biochemical; conditions: read-out: LATS1_HTRF_2 mM ATP IC50
Protocol: as §1
Assay was carried out in a 384 well plate. Each drug dosage curve was done with 16 points of 3-fold dilutions in 100% DMSO, and triplicate.

With `O=C(/N=c1\sccn1CC1CCCCC1)c1c[nH]c2ncccc12` [T55] the IC50 (Lats1 [1]) was 2 nM and the IC50 (Lats1 [2]) was 4.9 nM.
